# Test results from patent US6271233A, “Method for treating ocular neovascular diseases” (priority 1999, dated 2001).
# System: retinal vessels
# Conditions: 50 mg/kg/day, adult mice; FIGS. 6, 7
compound,measurement,value
Clc1ccc(Nc2nnc(Cc3ccncc3)c3ccccc23)cc1 [CGP 79787D],total area of endothelial staining in the retina or appearance of retinal vessels versus vehicle,no difference
